What is called EC50 is the concentration at which the effect is half-maximal.

Sequences of proteins named here, by UniProt entry; tags and fusion partners are left off.
UniProt P21554, whole entry: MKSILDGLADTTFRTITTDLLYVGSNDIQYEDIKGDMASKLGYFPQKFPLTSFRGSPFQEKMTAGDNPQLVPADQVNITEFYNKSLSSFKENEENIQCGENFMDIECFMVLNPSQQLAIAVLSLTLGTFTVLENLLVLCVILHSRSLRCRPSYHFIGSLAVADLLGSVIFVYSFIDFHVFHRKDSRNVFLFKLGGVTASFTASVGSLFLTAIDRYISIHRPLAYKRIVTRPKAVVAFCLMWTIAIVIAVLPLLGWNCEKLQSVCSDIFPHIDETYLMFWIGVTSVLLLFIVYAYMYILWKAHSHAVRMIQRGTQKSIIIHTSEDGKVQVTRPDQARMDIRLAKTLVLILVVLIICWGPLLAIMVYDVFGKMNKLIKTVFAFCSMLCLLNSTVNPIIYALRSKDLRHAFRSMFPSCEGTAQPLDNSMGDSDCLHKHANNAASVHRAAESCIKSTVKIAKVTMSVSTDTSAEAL

Among the data in ChEMBL document CHEMBL4364254 (J Med Chem, 2019) are EC50 values, retold here.

The assay has as its target Cannabinoid receptor 1 (Homo sapiens, UniProt P21554). The experiment in a line: Inverse agonist activity at human CB1 receptor expressed in CHOK1 cells co-expressing Galphaq16 assessed as reduction in CP55940-induced intracellular calcium mobilization by calcein-4 AM dye based fluorescence assay. The format is functional, cell-based.

Turning to `O=C(Nc1ccc(OC(F)F)nc1)NC1CCN(c2ncnc3c2nc(-c2ccccc2Cl)n3-c2ccc(Cl)cc2)CC1`, the EC50 was 718 nM.
